Assay type: physicochemical

Substance: Sodium Chlorite [stabilized chlorine dioxide]
- expected period of slow release of chlorine dioxide / oxidation of organic material (slurry of Example 1): up to 14 days
- period over which the majority of the active chlorine dioxide is released (slurry treated with a high concentration of stabilized chlorine dioxide): up to 14 days

From patent publication US20040237845A1, “Stabilized chlorine dioxide as oxidizing agent for use in pulp” (priority 2002, published 2004)
